Results reported in PubChem BioAssay AID1053175 (ICCB-Longwood Screening Facility, Harvard Medical School, 2014).
The list shows a part of the results, in another mix than the full data. The source made the active and inactive calls.

assay: E. coli growth inhibition, primary screen, OD600 (AID 1053175); settings: Escherichia coli growth, OD600, 23 h; active compounds read low

SMILES	OD600 absorbance
CCC(=O)N(c1ccccc1)C1(COC)CCN(CCn2nnn(CC)c2=O)CC1	inactive: 0.769
CCC(=O)N(c1ccccc1)C1(COC)CCN(CCc2cccs2)CC1	inactive: 0.743
